Test: Selectivity ratio of IC50 for rabbit muscle L-lactate dehydrogenase to IC50 for recombinant His6-tagged CtBP2 (31 to 384 residues) (unknown origin) dehydrogenase activity

O=C(O)/C(Cc1ccc(Cl)cc1)=N\O
Ratio IC50: > 170

From ChEMBL document CHEMBL3797021, “Design, synthesis, and biological evaluation of substrate-competitive inhibitors of C-terminal Binding Protein (CtBP)” (Bioorg Med Chem, 2016)
